Laboratory results: patent US11447825B2, “In-vitro methods for the detection of autoimmune diseases or conditions” (Universitätsmedizin der Johannes Gutenberg-Universität Mainz, priority 2015, dated 2022)

Columns and labels:
Type in all cases: in vivo, human
[1] = test system: peripheral T-cells of MS patients; experiment: IFN-β therapy of MS patients: sensitivity of peripheral T-cells to Treg-mediated suppression; settings: four month treatment with IFN-β, Treg ratio 1:1, compared with therapy-naïve MS and HC
Experimental: (§1) 85 patients with a relapsing-remitting course (RRMS, age 18 to 64 years) and 4 patients with a clinically isolated syndrome (CIS, age 22 to 53) all fulfilling the revised McDonald criteria for multiple sclerosis were included in this study. 31 patients were treated for at least 4 month with IFN-β. 58 patients had not received previous treatment or immunosuppressive agents six months before time point of analysis and were clinically stable. PBMC from healthy controls served as controls. PBMC were isolated within 12 h after blood collection and were used directly in in vitro experiments. Blood was kept at room temperature before PBMC enrichment. […]
Treg-depleted PBMC (10^5 cells) were stimulated with 0.5 μg/ml anti-CD3 mAb (OKT-3) and cultured in presence or absence of different Treg ratios (Treg:T-cells 1:1 to 1:64) (Jonuleit et al., 2001; Kubach et al., 2007). T-cell proliferation was determined on day three of cultures by addition of 37 kBq/well ^3H-Tdr for additional 16 h. […] Proliferation was assessed on day 3 after excluding dead cells. Analysis was performed on LSRII (BD Bioscience) and evaluated using DIVA software (BD Bioscience).
A) Treg-depleted PBMC from therapy-naïve (black), IFN-β-treated MS patients (blue) or HC (white) were cocultured with allogeneic Treg and stimulated with anti-CD3 mAb. T cell proliferation was determined by 3H-Tdr incorporation on day three. […]

PKB/c-Akt = experiment: IFN-β therapy of MS patients: PKB/c-Akt phosphorylation in CD3+ T-cells; settings: CD3+ T-cells of IFN-β-treated versus therapy-naïve MS patients
Experimental: as §1
(§2) For surface staining of PBMC or T-cells indicated antibodies were incubated for 30 min at 4° C. and washed twice with PBS. Stained cells were measured on LSRII with FACS Diva Software (BD Bioscience). […]
(§3) A) Treg-depleted PBMC from therapy-naïve (black), IFN-β-treated MS patients (blue) or HC (white) were cocultured with allogeneic Treg and stimulated with anti-CD3 mAb. T cell proliferation was determined by 3H-Tdr incorporation on day three. […] B) PKB/c-Akt phosphorylation was determined by flow cytometry within CD3^+ T-cells from therapy-naïve (red), IFN-βtreated MS patients (blue) or HC (black). […] C) IL-6R expression within PBMC from HC (black), therapy-naïve (red), or IFN-β-treated (blue) MS patients was determined by flow cytometry. […]

IL-6R = experiment: IFN-β therapy of MS patients: IL-6R expression within CD3+ T-cells by flow cytometry; settings: IL-6R+ cells within CD3+ T-cells, IFN-β-treated versus therapy-naïve MS patients
Experimental: as §1, §2, §3

PGC-1α = experiment: IFN-β therapy of MS patients: PGC-1α mRNA in activated T-cells by qRT-PCR; settings: CD3+ T-cells of IFN-β-treated MS patients, activated 4 h with anti-CD3 and anti-CD28 mAb; comparable to HC
Experimental: as §1
RNA was extracted from 2×10^6 cells using Rneasy Kit (Qiagen) according to manufacturer's instructions. cDNA was generated by reverse transcription with Sensiscript RT Kit (Qiagen) and amplified by quantitative RT-PCR (qRT-PCR, 7300 Real Time PCR System (Applied Biosystem) and the QuantiFAST PCR Kit (Qiagen). Relative IL-6 mRNA (QuantiTect Primer, Qiagen) expression levels were normalized to EF1-α or β-Actin. Relative PPARGC1α, IRF8, FGF19, HNF4A, Hdac, RORA mRNA was analyzed with QuantiTect Primer Assay (Qiagen) according to manufacturer's instructions and expression levels were normalized to β-ACT. […]

B1: IFN-β: standard therapy in the treatment of relapsing remitting MS (protein, UniProt P01574 22-187, looked up)
Interferon beta: MSYNLLGFLQRSSNFQCQKLLWQLNGRLEYCLKDRMNFDIPEEIKQLQQFQKEDAALTIYEMLQNIFAIFRQDSSSTGWNETIVENLLANVYHQINHLKTVLEEKLEKEDFTRGKLMSSLHLKRYYGRILHYLKAKEYSHCAWTIVRVEILRNFYFINRLTGYLRN
sensitivity of peripheral T-cells to Treg-mediated suppression [1]: restored sensitivity of peripheral T-cells to Treg-mediated suppression nearly to a level of T-cells from HC
PKB/c-Akt phosphorylation (PKB/c-Akt): reduced PKB/c-Akt phosphorylation
IL-6R expression (IL-6R): decreased IL-6R expression
PGC-1α mRNA expression after activation (PGC-1α): significant up-regulation of PGC-1α
